# Laboratory results as given in US5434256A, “Diamine platinum complexes as antitumor agents” (priority 1994, dated 1995).
# Experiment: Renal and hematological toxicity, single i.p. dose (Table 8)
smiles,measurement,setting,value
"NC1CCC(N)CC1.O.O=C([O-])C1(C(=O)[O-])CCC1.[Pt+2] [Compound 1, Cis-1,4-diaminocyclohexane-1,1-cyclobutanedicarboxylato-platinum(II).H2 O]",nephrotoxicity (in words),BUN,did not show any indication of nephrotoxicity
same,myelotoxicity / myelosuppression (in words),leucopenia,did not show any indication of nephrotoxicity or myelotoxicity
